Results published in patent US9872861B2, “Methods of treatment using selective Bcl-2 inhibitors” (AbbVie Inc., priority 2010, dated 2018).

Protein sequences, listed by entry. Tags and fused reporters are not part of them.
UniProt P10415, whole entry: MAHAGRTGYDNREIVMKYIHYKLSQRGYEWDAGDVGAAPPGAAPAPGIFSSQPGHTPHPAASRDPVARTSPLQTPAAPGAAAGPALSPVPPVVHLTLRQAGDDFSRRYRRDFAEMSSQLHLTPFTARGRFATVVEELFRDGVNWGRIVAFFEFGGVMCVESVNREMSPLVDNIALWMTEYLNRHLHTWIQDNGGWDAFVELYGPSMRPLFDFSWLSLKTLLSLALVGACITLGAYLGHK

Molecular target: Bcl-2 (Homo sapiens, UniProt P10415)
Assay: TR FRET competitive binding affinity, Bcl-2
Settings: read-out: Target Affinity TR FRET, Bcl-2
Method: A comparison of the binding affinity for each of the compounds was performed to determine target affinity, as measured by Time-Resolved Fluorescence Resonance Energy Transfer (TR FRET).

Structure (SMILES): CN1CCN(Nc2ccc(S(=O)(=O)NC(=O)c3ccc(N4CCN(CC5=C(c6ccc(Cl)cc6)CC(C)(C)CC5)CC4)cc3Oc3cnc4[nH]ccc4c3)cc2[N+](=O)[O-])CC1 [Compound 10, 4-(4-{[2-(4-chlorophenyl)-4,4-dimethylcyclohex-1-en-1-yl]methyl}piperazin-1-yl)-N-({4-[(4-methylpiperazin-1-yl)amino]-3-nitrophenyl}sulfonyl)-2-(1H-pyrrolo[2,3-b]pyridin-5-yloxy)benzamide]
- Ki: 0.02 nM
